Experimental findings from paper PMC11272584 (Nature Metabolism, 2024) are described below.

Positions count from the first letter of the chain named.

In one assay the target is T1, GIPR R164Q (Homo sapiens, UniProt P48546, R164Q).
T1 sequence (P48546 22-466 R164Q): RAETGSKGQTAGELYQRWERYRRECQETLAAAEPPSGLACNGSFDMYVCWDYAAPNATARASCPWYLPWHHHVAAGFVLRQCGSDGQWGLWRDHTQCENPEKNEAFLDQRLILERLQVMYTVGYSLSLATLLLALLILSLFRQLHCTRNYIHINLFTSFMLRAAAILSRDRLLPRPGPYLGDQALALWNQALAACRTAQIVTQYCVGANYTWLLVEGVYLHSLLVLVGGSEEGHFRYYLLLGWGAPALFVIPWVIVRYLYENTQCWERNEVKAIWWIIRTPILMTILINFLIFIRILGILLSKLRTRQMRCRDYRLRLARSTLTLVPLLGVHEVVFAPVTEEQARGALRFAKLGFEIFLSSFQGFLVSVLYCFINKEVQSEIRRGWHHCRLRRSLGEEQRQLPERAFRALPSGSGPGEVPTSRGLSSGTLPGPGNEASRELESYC
The conditions noted are these: GIPR R164Q (ICL1), mean, n = 5, duplicate.

The target in another assay is T2, GIPR R336P (Homo sapiens, UniProt P48546, R336P).
T2 sequence (P48546 22-466 R336P): T1 sequence (P48546 22-466 R164Q) with Q143R, R315P
Description: cAMP accumulation. In kind it is cell-based. Also on record: host or cells: HEK293. On the technique in general: Changes in cAMP serve as a functional read-out for many G protein-coupled receptors.

In another assay the target is T3, GIPR R190Q (Homo sapiens, UniProt P48546, R190Q).
T3 sequence (P48546 22-466 R190Q): T1 sequence (P48546 22-466 R164Q) with Q143R, R169Q
Description: cAMP accumulation. Format: cell-based. Also on record: host or cells: HEK293.

In a further assay the target is T4, GIPR T25R (Homo sapiens, UniProt P48546, T25R).
T4 sequence (P48546 22-466 T25R): T1 sequence (P48546 22-466 R164Q) with T4R, Q143R
The conditions noted are these: GIPR T25R (ECD), mean, n = 5, duplicate.

For a further assay, the target named is T5, GIPR I378M (Homo sapiens, UniProt P48546, I378M).
T5 sequence (P48546 22-466 I378M): T1 sequence (P48546 22-466 R164Q) with Q143R, I357M
The conditions noted are these: HEK293A, 1 µM GIP minus vehicle, n = 4, P = 0.0023.

For the substance “glucose-dependent insulinotropic polypeptide [GIP]”, the figures for the “logEC50 (Arrestin)” value on GIPR R164Q (Hill slope 1.0) and at GIPR T25R (Hill slope 1.0) were -8.9 and -9.3, respectively. Moreover, the entries for the “Arrestin (Emax)” value on GIPR R164Q (normalized to WT GIPR) and on GIPR T25R (normalized to WT GIPR) were 31 and 19, respectively. Besides, the “cAMP (Emax)” value was 42 % of WT GIPR activity at GIPR R336P (HEK293, GIP(1–42) 1 pM–100 nM, 30 min 37 °C, mean of n = 5) and 72 % of WT GIPR activity at GIPR R190Q (HEK293, GIP(1–42) 1 pM–100 nM, 30 min 37 °C, mean of n = 7). Further, the “logEC50 (cAMP)” value at GIPR R336P (HEK293, Hill slope 1.0, mean of n = 5) is on record as -10.7; on GIPR R190Q (HEK293, Hill slope 1.0, mean of n = 7), -8.1. The “Mean of ΔBRET” value on GIPR I378M was found to be 0.1166.
